Values of other authors as cited in US20150376703A1, “METHOD AND SYSTEM TO PREDICT RESPONSE TO PAIN TREATMENTS” (PATHWAY GENOMICS CORPORATION, priority 2013, published 2015).

Target: mu-opioid receptor (OPRM1) (Homo sapiens, UniProt P35372, N40D)
Conditions: OPRM1 G allele (Asn40Asp)

beta-endorphin
increase in beta-endorphin binding at the receptor: 3 fold
